# How the values were obtained:
# Details in all cases: human
# Calu-3 cells = system: Calu-3 cells
# HEK293T = system: HEK293T
# HepG2 = system: HepG2
smiles,measurement,setting,value
NC(=O)C1CCN(CCCN2c3ccccc3Sc3ccc(Cl)cc32)CC1 [Pipamazine],Calu-3 uninfected cytotoxicity Sinf Average,Calu-3 cells,-102%
same,HEK293T 72-hour cytotoxicty Sinf Average,HEK293T,-104%
same,HepG2 72-hour cytotoxicity Sinf Average,HepG2,-100%

# Reference: paper PMC8175350, “Drug repurposing screens identify chemical entities for the development of COVID-19 interventions” (Nature Communications, 2021)
